# From PubChem BioAssay AID504796 (The Scripps Research Institute Molecular Screening Center, 2011)
# The list shows a part of the results, in another mix than the full data. Calls of active or inactive are those of the source. Rule as the data show it: active = activation above about 20%; inactive = the rest.
# Assay: fluorescence polarization artefacts, biochemical, artefact control for PKA-R2B activator project (AID 504796);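 also: Cy5 labelled IP20 peptide probe with compound but no PKA protein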
# Conditions: FP artifact counterscreen, at 11.4 µM, active compounds read high
structure (smiles),measurement,value
c1nnnn1CCn1cnnn1,activation,inactive: 0.27%
